Binding of CDR-mutated scFvs to a peptide of the spike HR2 region

Data: MIT Lincoln Laboratory AlphaSeq set, Li et al. 2023, doi:10.1038/s41467-023-39022-2, as distributed in FLAb.

Target: peptide PDVDLGDISGINAS, taken from heptad repeat 2 (HR2) of SARS-CoV-2 spike.

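The parent was found by panning a naive human phage display library on the peptide. This is the validation round: designs drawn from the data on random variants, tested in the same kind of assay. Their group label is 14L_En_Gibbs (En: ensemble of fine-tuned language models; Gibbs: Gibbs sampling). The assay is AlphaSeq: two haploid yeast populations carry antibody and antigen on their surface. Mating (16 h, 30 °C) was followed by selection of diploids and sequencing of their barcodes. The ratio of observed to expected reads was calibrated, replicate by replicate, on BCL2-family standards whose Kd was known from biolayer interferometry. There are six technical replicates.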

Ab-14 is the parent antibody, in scFv form: VH, then the linker GGGGSGGGGSGGGGS, then VL. The heavy chain is unchanged in all variants.
VH: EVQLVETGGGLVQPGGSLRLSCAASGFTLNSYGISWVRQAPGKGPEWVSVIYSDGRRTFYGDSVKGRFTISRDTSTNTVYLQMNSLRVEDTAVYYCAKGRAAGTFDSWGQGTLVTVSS
VL: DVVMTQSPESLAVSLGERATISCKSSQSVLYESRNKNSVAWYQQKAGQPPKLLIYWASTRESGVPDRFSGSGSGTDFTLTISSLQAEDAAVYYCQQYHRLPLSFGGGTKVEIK

Variants are written as CDR1, CDR2 and CDR3 of the light chain (limits as in the source). Parent: KSSQSVLYESRNKNSVA, WASTRES, QQYHRLPLS. Scale: log10 of Kd in nM, estimated from mating counts; low values are strong binders. A mean of the replicates is given; it leaves out those without a signal. "ND" means that the variant was in the library but no mating with the target was seen in that replicate; the authors take this as a sign of poor binding, and no number exists. Empty control strains, which show no peptide, gave a signal in 4% of pairings with all light chain designs; the median was 2.64 and 95% of these signals were weaker than 1.59. No background was subtracted. For each scFv, signals with the empty controls are counted beside the result, with their mean in brackets. The range of this assay differs from that of the first round, and the authors advise against merging the two. The authors averaged sequences with at least three values out of six and counted those with two or fewer as poor binders.

CDR-L1	CDR-L2	CDR-L3	log10 Kd (nM) by replicate	mean log10 Kd (nM)	empty controls
KLWAYTQGLERNMQNIA	DGIYRVT	QQYGRLPLS	0.19 0.04 -0.19 0.02 0.03 0.13	0.04	1/18 (3.31)
QLGKNQDGDTLSQNAIA	HDALLVD	QQYFRLPLL	0.94 1.05 1.02 1.12 0.98 1.22	1.06	2/18 (2.29)
VMQMDNDRANDITYAIA	DVTMREK	QQYNRLPLM	1.42 1.33 1.25 1.49 1.11 1.30	1.32	4/18 (3.47)
KLWAYFQGLEQYMQNVA	DGSYRST	QQYDRLPLS	1.31 1.35 1.33 0.90 1.51 0.79	1.20	1/18 (2.22)
NMRGSEGEIAQHGYSVA	GVDLRAA	QQYARLPLH	1.24 1.02 0.97 1.24 1.06 1.65	1.20	2/18 (2.53)
KLLSLSLHQTGKLNSVA	DAEITQI	QQYMSLPLM	1.80 ND 0.71 0.31 ND 1.24	1.02	0/18
SLHMMPMVGYALNANVA	NASQLFS	QHYFRLPLT	1.18 1.15 1.25 1.49 1.79 1.50	1.39	4/18 (2.99)
QIAIHGMDENQMYNHIA	NENIRET	QQYWHLPLS	0.84 0.40 0.31 0.24 0.36 0.49	0.44	2/18 (1.94)
QIDSFYQHGTDAKKAMA	DGSVRTQ	QQYSRLPLS	0.01 -0.01 -0.04 -0.10 -0.09 -0.29	-0.09	0/18
EISILGEEVTGHYSNVA	EQHVTDM	QQYFRLPLS	ND ND ND ND ND ND	ND	0/18
MLNGPVEIEQHKWNSVA	SAEILAM	QQYFRLPFS	1.36 1.22 1.74 0.91 1.10 1.97	1.38	0/18
KLMDNPWVEDKYRNAIA	DIEEKAI	QFYSRLPLS	ND ND 1.87 ND 3.96 ND	2.91	0/18
VLSQDHDERGMYCDNIA	DESCREP	QQYFHLPLI	0.64 0.77 0.05 0.64 0.77 1.01	0.65	0/18
IIEQGEYEQEQHKNAIA	SGHERPR	QQYYKLPLV	0.81 1.69 0.29 0.16 0.53 0.52	0.67	1/18 (1.73)
KLNLKMRVNGERCYNIA	DSSTRLQ	QDYHRLPLI	1.09 1.88 1.01 1.39 1.27 1.18	1.30	1/18 (2.19)
KIDMSLNYEPHALNSIA	EEVMHTA	QQYDKLPLF	ND 2.47 ND ND ND ND	2.47	0/18
NMNVGLNFGKIQEQAIA	EVEKRES	QQYARLPLT	0.52 0.26 0.36 0.49 0.50 0.58	0.45	1/18 (2.84)
KFHMGWEMGSRWNDNIA	EANLRFS	QQYNRLPLF	1.47 ND 0.90 1.97 ND 1.95	1.58	0/18
KLAMILSMEAGTYHGVA	DANHKAD	QQYNRLPLS	1.08 0.67 0.62 0.16 0.69 1.20	0.74	0/18
KIQWYPMENRGTIQAIA	EASTIYN	QQYMHLPLS	0.44 -0.54 0.71 0.51 0.96 0.74	0.47	1/18 (1.54)
MFDQQTMTENDKNNSVA	EENHLYN	QQYAQLPLI	1.81 2.63 3.46 1.61 1.83 2.56	2.32	2/18 (3.07)
SFERGIDGNSLVQNNVA	EGTTLWE	QQYMRLPLA	-0.15 -0.08 -0.31 -0.26 -0.14 -0.02	-0.16	0/18
MIEEGNAGEIKNSSNIA	SQDQKSD	QQYQRLPLI	2.04 2.04 1.65 2.96 1.62 2.48	2.13	2/18 (2.39)
KLDQKNRWNGMANYNVA	ASNTRVD	QQYHRLPLI	0.30 1.07 0.97 1.09 0.47 1.25	0.86	0/18
KITDDFLTEGNGRQNIA	HNNVACD	QQYQQLPLA	0.57 0.45 0.35 0.35 0.25 0.51	0.42	0/18
SMQVYTENFMERGQNIA	DVSATTV	QQYHRLPLA	0.91 1.39 0.49 0.89 0.79 1.20	0.94	0/18
HLNGEWNHGANRDNNIA	EAQLVAA	QDYFRLPII	1.67 1.92 0.98 0.65 1.64 2.35	1.53	0/18
MMTMFPNEPTGDSNAIA	DTNQLNT	QQYQRLPLM	0.35 0.46 0.68 0.53 0.71 0.72	0.58	0/18
QFAGAMYGGGNDWQNIA	EAMTYIK	QQYSRLPLI	ND ND ND ND ND ND	ND	0/18
SLEPFEYQIMKDLNNIA	NTQVRAN	QQYMRLPFM	0.49 0.12 0.12 -0.02 0.08 0.38	0.19	1/18 (2.71)
VLAMESYQKYRHENNIA	EANMRAQ	QQYNRLPFQ	0.15 -0.13 -0.10 -0.12 -0.10 0.09	-0.03	1/18 (2.63)
RLRELNFESGNARNNIA	DAHIHEV	QQYSWLPLC	0.91 1.34 1.10 0.80 0.84 1.64	1.10	0/18
QVGQTIMADIMNKKSIA	AEETLID	QQYARLPFS	0.57 0.72 0.60 0.27 0.66 0.80	0.60	0/18
QFTQNTFYGQRDDNSIA	HADELVK	QQYDRFPLD	1.41 1.68 1.70 1.94 1.73 1.24	1.62	1/18 (2.77)
IMSDSQERDASILRNIA	DQTTRAM	QQYARLPLS	0.55 -0.01 0.32 0.56 0.10 0.54	0.34	0/18
QINMEMHHDLDDEQNVA	DAMTEVK	QQYGRLPLS	ND ND 2.07 ND 2.95 2.63	2.55	1/18 (2.36)
MLENKPTSFLNNKDAIA	DDEASTS	QQYDRLPLS	ND ND ND ND ND ND	ND	0/18
GILSQMDGPTEYKENVA	NGNERLP	QQYQRLPLT	1.40 0.98 1.73 2.00 1.44 1.28	1.47	0/18
FMQMQNDRMTDAAKNIA	DVDMRET	QQYARLPFM	0.95 1.49 1.15 1.00 0.93 1.39	1.15	0/18
NLAMAYEQGILIKNNIA	SDNLREN	QQYEKLPLI	ND ND 1.87 ND ND ND	1.87	0/18
HVAMECAEEKNKYYNIA	DASMRLA	QQYVRLPLG	0.39 0.41 0.09 0.04 0.16 0.68	0.29	0/18
MMGMTVTNQSNEIGNVA	DMNERFA	QQYFQLPLS	1.40 1.44 1.39 2.03 1.72 2.18	1.69	0/18
KLNDTFQQYERNNGSVA	DAIISEA	QQYARLPLI	0.19 0.59 0.30 0.50 0.35 0.41	0.39	0/18
SITVIDNPGSQGHNNIA	SGSCRAE	QQYIRLPLI	0.79 0.56 0.77 0.53 0.40 0.99	0.67	3/18 (2.20)
HMNKFMSEIGGARNSIA	GDDTLAQ	QHYHRLPLS	2.11 2.66 2.38 2.52 ND 3.37	2.61	0/18
MLDQMDGQMGGNGNNIA	DVNENRI	QQYHRLPLS	0.03 -0.32 0.15 -0.08 -0.30 -0.06	-0.10	0/18
KLYYHEVGLVNGQNSIA	EGDQLTF	QQYSHLPLS	1.11 1.15 1.39 0.95 1.13 0.89	1.10	0/18
HIDIINRGEDLKQDPIA	QADHREQ	QQYFHLPLA	0.99 1.21 0.95 1.37 1.33 1.35	1.20	2/18 (3.34)
KLWMSPFEGQSELQAVA	QAEVLRQ	QQYNMLPLS	2.93 1.39 ND 1.59 ND 1.69	1.90	0/18
SMQVYTENFAEIGQNIA	DVSATTA	QQYHRLPLA	0.62 0.91 0.61 0.74 0.80 0.96	0.77	0/18

The 8 strongest on average among those seen in every replicate, once more:

CDR-L1	CDR-L2	CDR-L3	log10 Kd (nM) by replicate	mean log10 Kd (nM)	empty controls
SFERGIDGNSLVQNNVA	EGTTLWE	QQYMRLPLA	-0.15 -0.08 -0.31 -0.26 -0.14 -0.02	-0.16	0/18
MLDQMDGQMGGNGNNIA	DVNENRI	QQYHRLPLS	0.03 -0.32 0.15 -0.08 -0.30 -0.06	-0.10	0/18
QIDSFYQHGTDAKKAMA	DGSVRTQ	QQYSRLPLS	0.01 -0.01 -0.04 -0.10 -0.09 -0.29	-0.09	0/18
VLAMESYQKYRHENNIA	EANMRAQ	QQYNRLPFQ	0.15 -0.13 -0.10 -0.12 -0.10 0.09	-0.03	1/18 (2.63)
KLWAYTQGLERNMQNIA	DGIYRVT	QQYGRLPLS	0.19 0.04 -0.19 0.02 0.03 0.13	0.04	1/18 (3.31)
SLEPFEYQIMKDLNNIA	NTQVRAN	QQYMRLPFM	0.49 0.12 0.12 -0.02 0.08 0.38	0.19	1/18 (2.71)
HVAMECAEEKNKYYNIA	DASMRLA	QQYVRLPLG	0.39 0.41 0.09 0.04 0.16 0.68	0.29	0/18
IMSDSQERDASILRNIA	DQTTRAM	QQYARLPLS	0.55 -0.01 0.32 0.56 0.10 0.54	0.34	0/18